In the NIST ThermoML archive (doi:10.1016/j.tca.2012.05.036):

Legend:
[1] = refractive index (Na D-line) (dimensionless); xn = mol fraction of the nth substance listed; conditions: 101 kPa, Liquid, Standard Abbe refractometry
[2] = relative permittivity at zero frequency (dimensionless); xn = mol fraction of the nth substance listed; conditions: 101 kPa, Liquid, Parallel plate capacitor

CCCCOCCCC [dibutyl ether] + CCCCCCCC
Conditions	refractive index, 293.15 K	refractive index, 298.15 K	refractive index, 303.15 K	relative permittivity at zero frequency, 288.15 K	relative permittivity at zero frequency, 293.15 K	relative permittivity at zero frequency, 298.15 K	relative permittivity at zero frequency, 303.15 K	relative permittivity at zero frequency, 308.15 K
[1], x1 = 0.1014	1.3979	1.3955	1.3929	–	–	–	–	–
[1], x1 = 0.2033	1.3979	1.3955	1.3929	–	–	–	–	–
[1], x1 = 0.306	1.398	1.3956	1.393	–	–	–	–	–
[1], x1 = 0.406	1.3981	1.3957	1.3931	–	–	–	–	–
[1], x1 = 0.5063	1.3982	1.3959	1.3932	–	–	–	–	–
[1], x1 = 0.6002	1.3983	1.396	1.3934	–	–	–	–	–
[1], x1 = 0.7036	1.3985	1.3962	1.3935	–	–	–	–	–
[1], x1 = 0.8029	1.3987	1.3964	1.3937	–	–	–	–	–
[1], x1 = 0.9003	1.3989	1.3966	1.3939	–	–	–	–	–
[2], x1 = 0.1014	–	–	–	2.074	2.065	2.056	2.047	2.038
[2], x1 = 0.2033	–	–	–	2.18	2.168	2.155	2.144	2.133
[2], x1 = 0.306	–	–	–	2.292	2.278	2.263	2.249	2.235
[2], x1 = 0.406	–	–	–	2.405	2.388	2.371	2.353	2.337
[2], x1 = 0.5063	–	–	–	2.524	2.504	2.484	2.464	2.444
[2], x1 = 0.6002	–	–	–	2.621	2.617	2.594	2.57	2.548
[2], x1 = 0.7036	–	–	–	2.775	2.747	2.719	2.692	2.667
[2], x1 = 0.8029	–	–	–	2.908	2.876	2.844	2.814	2.785
[2], x1 = 0.9003	–	–	–	3.043	3.007	2.972	2.938	2.905

CCCCOCCCC [dibutyl ether] + CCCCCO
Conditions	refractive index, 293.15 K	refractive index, 298.15 K	refractive index, 303.15 K	relative permittivity at zero frequency, 288.15 K	relative permittivity at zero frequency, 293.15 K	relative permittivity at zero frequency, 298.15 K	relative permittivity at zero frequency, 303.15 K	relative permittivity at zero frequency, 308.15 K
[1], x2 = 0.1104	1.4001	1.3976	1.3958	–	–	–	–	–
[1], x2 = 0.1877	1.4011	1.3985	1.3968	–	–	–	–	–
[1], x2 = 0.3047	1.4021	1.3995	1.3979	–	–	–	–	–
[1], x2 = 0.4064	1.4031	1.4008	1.3989	–	–	–	–	–
[1], x2 = 0.5075	1.4042	1.4017	1.4001	–	–	–	–	–
[1], x2 = 0.6034	1.4053	1.4029	1.4013	–	–	–	–	–
[1], x2 = 0.7038	1.4065	1.4041	1.4026	–	–	–	–	–
[1], x2 = 0.8018	1.4077	1.4054	1.4038	–	–	–	–	–
[1], x2 = 0.9048	1.4089	1.4067	1.4052	–	–	–	–	–
[2], x2 = 0.1104	–	–	–	3.61	3.556	3.502	3.449	3.399
[2], x2 = 0.1877	–	–	–	4.008	3.939	3.871	3.805	3.741
[2], x2 = 0.3047	–	–	–	4.628	4.528	4.431	4.338	4.249
[2], x2 = 0.4064	–	–	–	5.426	5.285	5.147	5.015	5.018
[2], x2 = 0.5075	–	–	–	6.482	6.281	6.087	5.901	5.725
[2], x2 = 0.6034	–	–	–	7.776	7.505	7.242	6.992	6.752
[2], x2 = 0.7038	–	–	–	9.464	9.112	8.768	8.437	8.123
[2], x2 = 0.8018	–	–	–	11.446	11.011	10.583	10.169	9.771
[2], x2 = 0.9048	–	–	–	13.846	13.328	12.812	12.313	11.828
